The conditions of this data set: clinical trials in healthy subjects and chronic HCV patients.

Take Poly-L-Arginine: the Safety profile entry is “excellent safety profile”.

For the origin of these results see US20090060875A1, “HCV Vaccines for Chronic HCV Patients” (INTERCELL AG, priority 2004, published 2009).
